Data as given in patent publication US8354392B2, “Drug-introduced photo-crosslinked hyaluronic acid derived gel” (priority 2005, dated 2013).

Assays:
Format in all cases: physicochemical
[1] = Viscosity measured with a rotation viscometer; conditions: gel from 1% solution in phosphate buffered physiological saline, photoirradiated, heat treatment; rotation viscometer at 20° C., standard cone (1°34′, 1 rpm)
Experimental: A 1% phosphate buffered physiological saline solution of the obtained naproxen-introduced photo-reactive HA (photo-reactive group: cinnamic acid) was prepared, and filled in a 5 mL glass syringe.
(§1) Evaluation was carried out in accordance with the following criteria.

[2] = Extrusion state from the tip of a 23 G injection needle (characteristics); parameters: key: ◯: formed a mass or a lump having a shape-maintaining property at the tip of the injection needle; X: did not form a mass; conditions: slowly extruded from an injection needle with 23 G downward
Experimental: as §1

[3] = Extrusion feeling through a 23 gauge injection needle; parameters: key: ◯: easily extruded; X: difficulty extruded; conditions: whole gel (2 ml to 5 ml) in 5 ml syringe, 23 gauge needle, limit pressure 0.5 to 5 kg/cm^2
Experimental: Evaluation was carried out in accordance with the following criteria. ◯: easily extruded X: difficulty extruded Incidentally, with regard to the criteria for the extrusion feeling, within the range of a limit pressure (0.5 to 5 kg/cm^2), when a whole gel (2 ml to 5 ml) filled in a syringe having a volume of 5 ml was extruded through an injection needle of 23 gauge, it was evaluated to as easily extruded (◯). Also, according to the same operation, when not a whole gel filled in a syringe was extruded, for example, by clogging due to insoluble materials, it was evaluated to as difficulty extruded (X).

For “naproxen-introduced photo-crosslinked HA gel [Example 2]”, the viscosity [1] was 34.7 Pa·s, the Extruded state [2] was “◯” and the Extrusion feeling [3] was “◯”.
